Test results as given in paper PMC1995760.

Molecular target: T1, NF-κB subunit p65 fused to mKO (donor copy) or mCherry (acceptor copy), Q04206
T1 chain: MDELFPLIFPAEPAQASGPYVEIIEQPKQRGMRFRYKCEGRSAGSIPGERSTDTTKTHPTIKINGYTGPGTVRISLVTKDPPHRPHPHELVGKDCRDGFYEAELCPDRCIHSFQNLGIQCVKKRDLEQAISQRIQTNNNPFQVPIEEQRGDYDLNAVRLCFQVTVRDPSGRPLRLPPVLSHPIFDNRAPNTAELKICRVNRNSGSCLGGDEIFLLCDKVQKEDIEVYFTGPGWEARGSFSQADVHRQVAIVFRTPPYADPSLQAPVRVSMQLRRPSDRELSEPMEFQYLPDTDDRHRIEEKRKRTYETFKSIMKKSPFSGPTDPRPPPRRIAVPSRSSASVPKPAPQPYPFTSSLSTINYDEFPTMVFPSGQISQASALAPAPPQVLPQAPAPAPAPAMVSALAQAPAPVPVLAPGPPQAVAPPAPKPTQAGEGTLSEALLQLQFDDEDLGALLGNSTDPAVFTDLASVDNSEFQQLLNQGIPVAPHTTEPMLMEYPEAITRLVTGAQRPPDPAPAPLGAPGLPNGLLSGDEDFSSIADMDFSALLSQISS
Experiment: FRET or BRET; frequency-domain FLIM of the donor in single living HeLa cells; mKO-p65 donor and mCherry-p65 acceptor, equal amounts of plasmid; control: cells with mKO-p65 only; room temperature
Conditions: remark: other sources report otherwise

B1: NF-κB subunit p65 fused to mKO (donor copy) or mCherry (acceptor copy), Q04206 1-551 (natural protein)
chain: T1 chain
FRET efficiency based on the phase lifetime: 10%
